Measured values: ChEMBL document CHEMBL1909046, “DrugMatrix in vitro pharmacology data”

Chains of the proteins cited; added tags and fusions are not shown. Lines headed by an entry give the natural chain unless they say otherwise; changes in a name come on top.
UniProt P41597: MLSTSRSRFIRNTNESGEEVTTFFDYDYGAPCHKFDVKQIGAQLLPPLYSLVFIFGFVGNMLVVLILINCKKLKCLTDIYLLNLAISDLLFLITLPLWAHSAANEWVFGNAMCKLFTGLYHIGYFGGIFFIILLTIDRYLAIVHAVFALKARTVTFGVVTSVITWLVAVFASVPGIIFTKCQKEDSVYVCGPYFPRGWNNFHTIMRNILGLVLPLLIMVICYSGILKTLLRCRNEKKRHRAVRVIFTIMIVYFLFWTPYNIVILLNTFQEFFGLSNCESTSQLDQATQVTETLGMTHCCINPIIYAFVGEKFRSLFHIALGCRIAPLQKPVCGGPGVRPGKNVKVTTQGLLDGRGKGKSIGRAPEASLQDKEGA
UniProt P08684, whole entry: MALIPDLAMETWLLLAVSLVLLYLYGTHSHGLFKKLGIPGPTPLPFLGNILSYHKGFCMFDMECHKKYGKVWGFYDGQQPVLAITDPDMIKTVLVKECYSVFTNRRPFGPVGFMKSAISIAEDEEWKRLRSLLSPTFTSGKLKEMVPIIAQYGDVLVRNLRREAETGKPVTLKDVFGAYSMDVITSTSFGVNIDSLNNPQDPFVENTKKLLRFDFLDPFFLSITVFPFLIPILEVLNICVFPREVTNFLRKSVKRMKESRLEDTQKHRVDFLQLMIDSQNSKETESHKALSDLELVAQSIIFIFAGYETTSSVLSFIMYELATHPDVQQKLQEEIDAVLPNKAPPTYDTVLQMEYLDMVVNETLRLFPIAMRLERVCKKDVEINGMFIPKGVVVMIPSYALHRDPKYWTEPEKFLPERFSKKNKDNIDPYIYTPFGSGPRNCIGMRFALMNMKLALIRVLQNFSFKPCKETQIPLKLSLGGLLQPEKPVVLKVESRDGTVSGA
UniProt P21397, whole entry: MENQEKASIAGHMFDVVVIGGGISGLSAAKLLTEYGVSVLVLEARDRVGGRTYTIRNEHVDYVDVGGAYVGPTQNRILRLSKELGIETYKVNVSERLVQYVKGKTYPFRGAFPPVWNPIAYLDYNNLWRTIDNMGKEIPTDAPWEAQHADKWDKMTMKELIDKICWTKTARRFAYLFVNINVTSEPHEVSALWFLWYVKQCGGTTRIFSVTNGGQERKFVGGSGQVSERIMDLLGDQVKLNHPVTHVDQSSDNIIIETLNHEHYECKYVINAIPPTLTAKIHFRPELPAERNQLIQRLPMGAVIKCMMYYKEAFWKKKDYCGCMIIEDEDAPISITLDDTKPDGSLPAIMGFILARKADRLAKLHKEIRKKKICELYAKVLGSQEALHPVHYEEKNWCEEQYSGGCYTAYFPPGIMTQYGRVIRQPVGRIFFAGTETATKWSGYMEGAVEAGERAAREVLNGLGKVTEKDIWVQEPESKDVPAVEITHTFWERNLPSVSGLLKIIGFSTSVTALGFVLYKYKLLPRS

Tests used:
[1] = biological target: C-C chemokine receptor type 2 (Homo sapiens, UniProt P41597); type: cell membranes, Membrane; conditions: cho-k1; note: in other assays of this panel Not Active means under 50% inhibition at 10 µM
Cytochrome P450 3A4 = Cytochrome P450 3A4 (Homo sapiens, UniProt P08684); conditions: bti-tn-5b1-4; note: in other assays of this panel Not Active means under 50% inhibition at 10 µM
[2] = biological target: Amine oxidase [flavin-containing] A (Homo sapiens, UniProt P21397); test: DRUGMATRIX: Monoamine Oxidase MAO-A enzyme inhibition (substrate: Kynuramine); conditions: bti-tn-5b1-4; Not Active = under 50% inhibition at 10 µM

| Structure (SMILES) | IC50 [1] | also measured |
| --- | --- | --- |
| CCCCC(=O)N(Cc1ccc(-c2ccccc2-c2nnn[nH]2)cc1)[C@H](C(=O)O)C(C)C | Not Active |  |
| CCC(C)n1ncn(-c2ccc(N3CCN(c4ccc(OCC5COC(Cn6cncn6)(c6ccc(Cl)cc6Cl)O5)cc4)CC3)cc2)c1=O (centres undefined) [ITRACONAZOLE] |  | Ki (Cytochrome P450 3A4): Note: corresponding IC50 reported as Active |
| CCCCc1nc(Cl)c(CO)n1Cc1ccc(-c2ccccc2-c2nnn[nH]2)cc1 [LOSARTAN] | Not Active |  |
| NNCCc1ccccc1 [PHENELZINE] |  | Ki [2]: Note: corresponding IC50 reported as Active |
